From PubChem BioAssay AID2551 (National Center for Advancing Translational Sciences (NCATS), 2010)
This is a selection; strong and weak results do not stand in their true shares. Inconclusive results are not listed. Calls of active or inactive are those of the source. Calls come from the whole dose curve; as a rule, active = well fitted inhibition curve with a large enough effect; inconclusive = small, poorly fitted or top-dose-only effect, or effect the other way; inactive = no such curve, though single readings can be large or run the other way.

By UniProt entry, the sequences of proteins in these tests, tags left out. Where a name states a change or a piece, a line headed by the entry shows the natural chain unless it says otherwise.
UniProt P51450: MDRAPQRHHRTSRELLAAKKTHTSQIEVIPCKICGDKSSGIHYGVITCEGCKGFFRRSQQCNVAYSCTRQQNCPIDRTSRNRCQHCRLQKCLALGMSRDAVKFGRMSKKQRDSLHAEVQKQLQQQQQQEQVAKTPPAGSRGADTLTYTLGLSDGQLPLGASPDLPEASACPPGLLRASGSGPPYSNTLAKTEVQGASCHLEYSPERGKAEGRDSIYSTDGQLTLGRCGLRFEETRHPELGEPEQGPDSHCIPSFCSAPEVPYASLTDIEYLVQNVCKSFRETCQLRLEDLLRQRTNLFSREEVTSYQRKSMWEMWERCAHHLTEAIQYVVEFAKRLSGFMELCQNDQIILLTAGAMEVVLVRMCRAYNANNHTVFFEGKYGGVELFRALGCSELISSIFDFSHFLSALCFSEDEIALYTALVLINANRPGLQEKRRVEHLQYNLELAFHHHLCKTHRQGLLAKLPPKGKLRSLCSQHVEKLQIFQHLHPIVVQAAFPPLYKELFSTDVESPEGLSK

biological target: Nuclear receptor ROR-gamma (Mus musculus) (UniProt P51450); assay: qHTS for inhibitors of ROR gamma transcriptional activity; details: Drosophila S2 Gal4-RORgamma UAS-luciferase reporter, 20 h; series mostly up to 53.6 µM; activity change, negative = inhibition: at the top concentration; note: nearly all actives have a fitted effect of over 60% in size
% is set by controls: 0 for no effect and ±100 for the full control effect; potency is the fitted concentration of half-maximal effect.

| SMILES | activity change, negative = inhibition | Potency |
| --- | --- | --- |
| O=C(Nc1ccncc1[N+](=O)[O-])c1ccc([N+](=O)[O-])cc1[N+](=O)[O-] | inactive: -41.1% |  |
| O=C(COc1ccccc1)OC1CN2CCC1CC2 (stereo not drawn) | inactive: -10.9% |  |
| COP1(=S)c2c(C)nn(CCC#N)c2N=C(c2ccc(F)cc2)N1C (stereo not drawn) | inactive: 24% |  |
| O=C(OC1CN2CCC1CC2)c1cccc([N+](=O)[O-])c1 (stereo not drawn) | inactive: -14% |  |
| CCOC(=O)c1ccc(NC(=O)C(C)(CCl)SC)cc1 (stereo not drawn) | inactive: 13.6% |  |
| Cc1cc(SC(NC(=O)c2ccccc2)C(Cl)(Cl)Cl)nc(C(C)C)n1 (stereo not drawn) |  | active: 14.1 µM |
| CCCCOc1ccc(C(=O)NCC2(N3CCCCC3)CCCCC2)cc1OC | inactive: -9.98% |  |
| CCOC(=O)Nc1ccc([As](=O)(O)O)c(O)c1 | inactive: -6.29% |  |
| O=P(Nc1ccccn1)(c1cccc2ccccc12)c1cccc2ccccc12 | inactive: -27.8% |  |
| O=[N+]([O-])c1ccc(Nc2ccc(Oc3ccc([N+](=O)[O-])cc3[N+](=O)[O-])cc2)c([N+](=O)[O-])c1 | inactive: 2.9% |  |
| CCOC(=O)Nc1cccc([As](=O)(O)O)c1 | inactive: 3.75% |  |
| Cc1ccc(OP(=O)(Nc2ccc([N+](=O)[O-])cn2)Oc2ccc(C)cc2)cc1 | inactive: 16.3% |  |
| Cc1ccc2nc3c(c(C)c2c1)CC(C(Cl)Cl)S3 (stereo not drawn) | inactive: 6.98% |  |
| C[As](=O)(O)c1cccc(C(=O)O)c1 | inactive: -6.23% |  |
| O=[As](O)(c1ccc(O)cc1)c1ccccc1O | inactive: 9.21% |  |
| O=[N+]([O-])c1cc([N+](=O)[O-])c(-c2ccn[nH]2)s1 | inactive: -89.1% |  |
| CCN(CC)C(=S)SC(NC=O)C(Cl)(Cl)Cl (stereo not drawn) | inactive: -2.55% |  |
| CC(C)NC(=O)NP(=O)(Oc1ccccc1)Oc1ccccc1 | inactive: -13.8% |  |
| ClCCSc1nnc(-c2cccnc2)o1 | inactive: -3.16% |  |
| CC(C)c1ccc(OP(=O)(Nc2ccccn2)Oc2ccccc2F)cc1 (stereo not drawn) | inactive: -0.0818% |  |
| COc1cc(I)ccc1[As](=O)(O)O | inactive: -2.77% |  |

| SMILES | activity change, negative = inhibition | Potency |
| --- | --- | --- |
| Cc1cc(=O)[nH]c(N[N+](=O)[O-])n1 | inactive: 5.32% |  |
| O=C(OC1CN2CCC1CC2)C12CC3CC(CC(C3)C1)C2 (stereo not drawn) | inactive: -13.3% |  |
| COc1ccc(N/C(=N/P(=O)(N2CCOCC2)N2CCOCC2)N2CCOCC2)cc1 | inactive: -16.7% |  |
| O=[As](O)(c1cccc(O)c1)c1cccc(O)c1 | inactive: -20.3% |  |
| Cc1cccc(OCC(=O)OC2CN3CCC2CC3)c1 (stereo not drawn) | inactive: -0.756% |  |
| O=C(OC1CN2CCC1CC2)c1ccc(Cl)cc1 (stereo not drawn) | inactive: 18.9% |  |
| CS(=O)(=O)c1ccc(Cl)c(NC(=O)COC(=O)C(O)(c2ccccc2)c2ccccc2)c1 | inactive: 5.34% |  |
| COc1cc(C(=O)NCC2(N3CCOCC3)CCCCC2)cc(Cl)c1OC(C)C | inactive: -19.8% |  |
| O=[As](O)(O)c1cccnc1 | inactive: 1.1% |  |
| CCOP(=O)(Nc1cccc2ccccc12)OCC | inactive: 0.377% |  |
| COc1cc(C2NCCC3(OCCO3)C2(C)C)cc(OC)c1OC (stereo not drawn) | inactive: -32.6% |  |
| Nc1cccc2c([As](=O)(O)O)cccc12 | inactive: -6.52% |  |
| Cc1ccc(NCCc2c([N+](=O)[O-])cc([N+](=O)[O-])cc2[N+](=O)[O-])cc1 | inactive: -44.3% |  |
| CCCOP(=S)(Nc1nc(N)cc(=O)[nH]1)OCCC | inactive: -1.94% |  |
| O=C(O)COc1ccc([As](=O)(O)O)cc1[N+](=O)[O-] | inactive: -4.45% |  |
| Nc1ccccc1[As](=O)(O)c1ccccc1 | inactive: 11.9% |  |
| O=P(Nc1nccs1)(c1ccccc1)c1nc2ccccc2s1 (stereo not drawn) |  | active: 8.91 µM |
| O=P(Nc1nccs1)(Oc1ccccc1)Oc1ccccc1 | inactive: 11.8% |  |
| CCOP1(=S)c2c(C)nn(CCC#N)c2N=C(c2ccccc2F)N1C (stereo not drawn) | inactive: -4.42% |  |
| CCOP1(=S)c2c(C)nn(CCC#N)c2N=C(c2ccc(F)cc2)N1C (stereo not drawn) | inactive: 29.1% |  |
| CN(C(=O)Cc1ccccc1)[C@@H]1CC[C@]2(CCCO2)C[C@H]1N1CCCC1 | inactive: -8.2% |  |

| SMILES | activity change, negative = inhibition | Potency |
| --- | --- | --- |
| O=[N+]([O-])c1ccc2c(c1)nnn2O | inactive: -13.4% |  |
| NC(=O)Nc1ccc([As](=O)(O)O)cc1 |  | inactive |
| CN(C)C1(CNC(=O)c2ccc(S(C)(=O)=O)cc2)CCCCC1 | inactive: -3.88% |  |
| O=C(/C=C/c1ccccc1)OC1CN2CCC1CC2 (stereo not drawn) | inactive: 44.1% |  |
| Cc1ccc(C(=O)OC2CN3CCC2CC3)cc1 (stereo not drawn) | inactive: -4.84% |  |
| CC1CCC(C(C)C)C(OP(=O)(Nc2ccccn2)c2ccccc2)C1 (stereo not drawn) | inactive: 17.8% |  |
| Cc1nn(-c2ccccc2)c2c1P(=O)(N1CCOCC1)N(C)C(c1ccccc1)=N2 (stereo not drawn) | inactive: 21.3% |  |
| Nc1cccc([As](=O)(O)c2ccccc2)c1 | inactive: 12.9% |  |
| O=P1(Nc2ccc(Br)cn2)COc2ccccc2OC1 | inactive: -3.02% |  |
| O=[As](O)(c1cccs1)c1cccs1 | inactive: -7.27% |  |
| Cc1ccc(OCC(=O)OC2CN3CCC2CC3)cc1 (stereo not drawn) | inactive: 33.8% |  |
| O=P1(Nc2ncccn2)COc2ccccc2OC1 | inactive: 42% |  |
| CC(C)(C)C(=O)NC(Sc1ncccn1)C(Cl)(Cl)Cl (stereo not drawn) | inactive: -16.7% |  |
| Clc1n[nH]nc1-c1nn[nH][15n]1 | inactive: -19.3% |  |
| CCOP(=O)(NC(=NC(C)c1ccccc1)NC(C)c1ccccc1)OCC (stereo not drawn) | inactive: 17.1% |  |
| CCC1=CC2Cc3nc4ccc(Cl)cc4c(N)c3C(C1)C2 (stereo not drawn) | inactive: -33.6% |  |
| O=P1(Nc2ccccn2)COc2ccccc2OC1 | inactive: -25.4% |  |
| CCOP(=O)(Nc1ccc(C)cn1)OCC | inactive: 5.31% |  |
| CN(C(=O)Cc1ccc(Cl)c(Cl)c1)[C@@H]1CCCC[C@H]1N1CCCC1 | inactive: -15.1% |  |
| CC(C)/C=N\N=C(\N)N[N+](=O)[O-] | inactive: 1.66% |  |
| O=[As](O)(c1ccccc1Br)c1ccccc1Br | inactive: -1.47% |  |
